A selection: hits, their analogues and other compounds. The true share with any hit is near 1.7%.
CAL PDZ FP-1: inhibitors of human CAL PDZ peptide binding; purified CAL PDZ, TMR-peptide fluorescence polarization, 1 h; inhibition, % at 20 µM; actives 0.02% (n = 330,000); AID 504414;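 active = highest replicate inhibition of at least 40%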;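 note: plate controls were DMSO neutral control wells for no effect and unlabeled competitor peptide control wells for full effect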
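Material – purified CerCALP PDZ construct · Detection – FP readout, S and P plane fluorescence · Measure – percent inhibition from loss of millipolarization · Controls – unlabelled peptide for full inhibition, DMSO wells as neutral · Probe or stimulus – TMR-labelled reporter peptide T*-PRC34 bound in PDZ groove · Times – 1 h at RT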
UUG fidelity: modulators of start codon recognition fidelity in yeast. S. cerevisiae UUG-firefly luciferase reporter, luminescence/redox ratio. activity score, % at 18.7 µM. 0.13% of 350,000 active. AID 602363;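 active = replicate mean at a twofold rise or more, about +100% in these data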;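 also: firefly luciferase made from a UUG start codon reports start codon fidelity; reporter light over untreated wells divided by growth signal over untreated wells; some hits fall short of that in this replicate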
CAL PDZ FP-2: inhibitors of human CAL PDZ peptide binding; Q9HD26; purified CAL PDZ, TMR-peptide fluorescence polarization, 1 h; inhibition, % at 24.9 µM; actives 0.92% (n = 300,000); AID 602252;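 active = mean inhibition of at least 30% with at least half of replicates also reaching 30%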;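 note: 0% = DMSO neutral control and 100% = excess unlabeled competitor peptide PRC23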
dFosB act-1: mouse delta FosB homodimer activation | purified delta FosB, TAMRA-CDK5 oligo fluorescence polarization; percent of positive-control signal above neutral wells | activation, % at 25 µM | actives 0.99% (n = 340,000);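 active = mean activation above about 17%, with every replicate also reaching it, limit read from the data, passing the limit was not always enough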
Dyrk1A ADPGlo: inhibitors of rat Dyrk1A kinase; AID 504441; actives 0.43% (n = 310,000); inhibition, % at 12.5 µM; ADP-Glo luminescence, NFATc1 peptide; Q63470; in the data active = inhibition above about 50%;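 note: plate controls were vehicle with enzyme for no effect and no enzyme for full effect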
CDK5 p35 inh: CDK5/p35 (human) kinase inhibition; Recombinant CDK5/p35, ADP-Glo luminescence, 60 min; inhibition, % at 10 µM; actives 0.01% (n = 330,000); AID 488839;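 active = highest replicate inhibition of at least 50% and at least 75% of replicates reaching 50%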;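 note: plate controls were DMSO neutral control for no effect and GW8510 at 10 µM for full effect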
dFosB act-2: activators of mouse delta FosB homodimer DNA binding; 2,400 tested, under 10 active; shares compounds with dFosB act-1; activation, % at 24.9 µM; purified delta FosB, TAMRA-CDK5 oligo fluorescence polarization; normalised: neutral wells 0, positive control 100; AID 588690;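 active = highest replicate activation at or above 34% and every replicate reaching that threshold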;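 note: higher polarization means more probe DNA bound by delta FosB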
* marks the source's active call; other numbers are inactive results; ! = not active in a repeat.

What do the screens show for `Cc1ccc(-n2c(O)c(C=NCc3ccccn3)c3ccccc3c2=O)cc1`?
CAL PDZ FP-1: -2; UUG fidelity: -18; CAL PDZ FP-2: 4; dFosB act-1: 26*; Dyrk1A ADPGlo: 9; CDK5 p35 inh: 0; dFosB act-2: 5

What do the screens show for `Cc1cccc(-n2c(O)c(C=NCc3ccccn3)c3ccccc3c2=O)c1`?
CAL PDZ FP-1: -1; CAL PDZ FP-2: -2; dFosB act-1: 0; Dyrk1A ADPGlo: -74; CDK5 p35 inh: 2

What do the screens show for `Cc1ccc(C(=O)c2oc3ccccc3c2NC(=O)c2cc(-c3ccccc3O)n[nH]2)cc1`?
CAL PDZ FP-1: -3; CAL PDZ FP-2: -2; dFosB act-1: 31*; Dyrk1A ADPGlo: -1; CDK5 p35 inh: -1; dFosB act-2: -5

How did Cc1ccc(C(=O)c2oc3ccccc3c2NC(=O)c2cc(-c3cc(C)ccc3O)n[nH]2)cc1 do in these assays?
CAL PDZ FP-1: 0; UUG fidelity: -20; CAL PDZ FP-2: -4; dFosB act-1: 1; Dyrk1A ADPGlo: 0; CDK5 p35 inh: 0

What do the screens show for `C[C@H]1CN([C@@H](C)CO)S(=O)(=O)c2ccc(C#CC(C)(C)O)cc2O[C@@H]1CN(C)Cc1ccc(-c2ccccc2)cc1`?
UUG fidelity: -9

Results for Cc1cccc(NC(=O)c2cc(S(=O)(=O)N3CCc4ccccc43)cn2C)c1C ?
CAL PDZ FP-1: 0; UUG fidelity: -21; CAL PDZ FP-2: 0; dFosB act-1: 40*; Dyrk1A ADPGlo: 1; CDK5 p35 inh: 1; dFosB act-2: -1

Results for CCc1ccccc1NC(=O)c1cc(S(=O)(=O)N2CCc3ccccc32)cn1C ?
CAL PDZ FP-1: 0; UUG fidelity: 8; CAL PDZ FP-2: 0; dFosB act-1: 26*; Dyrk1A ADPGlo: 0; CDK5 p35 inh: -1; dFosB act-2: -8

How did O=C(c1cc(-c2ccc(Cl)c(Cl)c2)on1)N1CCOCC1 do in these assays?
CAL PDZ FP-1: -1; UUG fidelity: 1; dFosB act-1: 50*; Dyrk1A ADPGlo: 1; CDK5 p35 inh: 2; dFosB act-2: 0

How did O=C(c1cc(-c2ccc(Cl)cc2)on1)N1CCOCC1 do in these assays?
CAL PDZ FP-1: -2; UUG fidelity: -38; CAL PDZ FP-2: -3; dFosB act-1: -7; Dyrk1A ADPGlo: 4; CDK5 p35 inh: -2

How did Cc1noc(C)c1NC(=O)N[C@@H]1C=C[C@@H](CC(=O)NCc2ccc(Cl)c(Cl)c2)O[C@@H]1CO do in these assays?
UUG fidelity: -2

How did Cc1sc2nc(CN3CCOCC3)nc(N3CCN(S(=O)(=O)c4ccccc4)CC3)c2c1C do in these assays?
CAL PDZ FP-1: 0; UUG fidelity: 1; CAL PDZ FP-2: -2; dFosB act-1: -9; CDK5 p35 inh: 1

Results for Cc1sc2nc(CN3CCCC3)nc(N3CCN(S(=O)(=O)c4cccc(F)c4)CC3)c2c1C ?
CAL PDZ FP-1: -1; UUG fidelity: -9; CAL PDZ FP-2: 0; dFosB act-1: 44*; CDK5 p35 inh: 2; dFosB act-2: 5

What do the screens show for `COc1cccc(C2=NCCc3cc4c(cc32)OCO4)c1OC`?
CAL PDZ FP-1: 0; UUG fidelity: 2; CAL PDZ FP-2: 7; dFosB act-1: -3; Dyrk1A ADPGlo: 1; CDK5 p35 inh: 1

Results for COc1ccc2cc3[n+](cc2c1OC)CCc1cc2c(cc1-3)OCO2 ?
CAL PDZ FP-1: -2; UUG fidelity: -9; CAL PDZ FP-2: -5; dFosB act-1: 36*!; Dyrk1A ADPGlo: -3; CDK5 p35 inh: 0; dFosB act-2: 2

How did C[C@@H]1CN([C@@H](C)CO)C(=O)c2cc(-c3ccccc3F)cnc2O[C@@H]1CN(C)C(=O)C1CC1 do in these assays?
UUG fidelity: 10

Fetched by compound from above, two records:
How did Cc1sc2nc(CN3CCOCC3)nc(N3CCN(S(=O)(=O)c4ccccc4)CC3)c2c1C do in these assays?
CAL PDZ FP-1: 0; UUG fidelity: 1; CAL PDZ FP-2: -2; dFosB act-1: -9; CDK5 p35 inh: 1

What do the screens show for `Cc1cccc(-n2c(O)c(C=NCc3ccccn3)c3ccccc3c2=O)c1`?
CAL PDZ FP-1: -1; CAL PDZ FP-2: -2; dFosB act-1: 0; Dyrk1A ADPGlo: -74; CDK5 p35 inh: 2

The main list resumes with the 2 entries that preceded the break.
Results for COc1ccc2cc3[n+](cc2c1OC)CCc1cc2c(cc1-3)OCO2 ?
CAL PDZ FP-1: -2; UUG fidelity: -9; CAL PDZ FP-2: -5; dFosB act-1: 36*!; Dyrk1A ADPGlo: -3; CDK5 p35 inh: 0; dFosB act-2: 2

How did C[C@@H]1CN([C@@H](C)CO)C(=O)c2cc(-c3ccccc3F)cnc2O[C@@H]1CN(C)C(=O)C1CC1 do in these assays?
UUG fidelity: 10

Results for O=C(CSc1nc2c([nH]c3ccccc32)c(=O)n1-c1ccccc1)N1CCOCC1 ?
CAL PDZ FP-1: 1; UUG fidelity: -19; dFosB act-1: -3; Dyrk1A ADPGlo: -8; CDK5 p35 inh: -2

What do the screens show for `O=C(CSc1nc2c([nH]c3ccccc32)c(=O)n1-c1cccc(Cl)c1)N1CCOCC1`?
CAL PDZ FP-1: 0; UUG fidelity: -18; dFosB act-1: 55*; Dyrk1A ADPGlo: 1; CDK5 p35 inh: 0; dFosB act-2: 4

Results for CCc1cc2ccc(OC)cc2nc1SCC(=O)Nc1cc(C)on1 ?
UUG fidelity: -3; CAL PDZ FP-2: 19; dFosB act-1: 111*; Dyrk1A ADPGlo: 3; CDK5 p35 inh: 1; dFosB act-2: 0

Results for CCc1cc2ccccc2nc1SCC(=O)Nc1cc(C)on1 ?
CAL PDZ FP-1: 1; UUG fidelity: -8; CAL PDZ FP-2: 0; dFosB act-1: -5; Dyrk1A ADPGlo: -3; CDK5 p35 inh: 1

How did Cc1cc(NC(=O)CSc2nc3c([nH]c4ccccc43)c(=O)n2-c2cccc(C(F)(F)F)c2)no1 do in these assays?
UUG fidelity: -6; CAL PDZ FP-2: -1; dFosB act-1: -2; Dyrk1A ADPGlo: 7; CDK5 p35 inh: 2

How did COc1cccc(-n2c(SCC(=O)Nc3cc(C)on3)nc3c([nH]c4ccccc43)c2=O)c1 do in these assays?
CAL PDZ FP-1: -1; UUG fidelity: -18; dFosB act-1: 39*; Dyrk1A ADPGlo: 2; CDK5 p35 inh: -2; dFosB act-2: 3

Results for CC1C=NC(S(=O)(=O)N2CC[C@@H]3[C@H](CO)N(C)c4ccc(C#Cc5cccnc5)cc4[C@@H]32)=N1 (some centres not stated) ?
UUG fidelity: 2

Results for O=c1c2ccc(Cl)cc2[nH]c(=S)n1Cc1cccnc1 ?
CAL PDZ FP-1: -1; UUG fidelity: -20; CAL PDZ FP-2: -4; dFosB act-1: 20*; Dyrk1A ADPGlo: 6; CDK5 p35 inh: -2; dFosB act-2: 6

What do the screens show for `COCC(=O)Nc1ccc2c(c1)OC[C@@H](C)N(Cc1ccccc1)C[C@H](C)[C@@H](OC)CN(C)C2=O`?
UUG fidelity: 4

What do the screens show for `NC(=O)CC(NC(=O)c1ccc(Br)cc1)c1ccc(NCc2ccc(F)c(F)c2)c([N+](=O)[O-])c1` (configuration not stated)?
CAL PDZ FP-1: -1; UUG fidelity: -20; CAL PDZ FP-2: -3; dFosB act-1: 9; CDK5 p35 inh: 1

What do the screens show for `NC(=O)CC(NC(=O)Cc1ccc(Br)cc1)c1ccc(NCc2ccc(F)c(F)c2)c([N+](=O)[O-])c1` (configuration not stated)?
CAL PDZ FP-1: 0; UUG fidelity: -15; CAL PDZ FP-2: 0; dFosB act-1: 52*; Dyrk1A ADPGlo: 3; CDK5 p35 inh: -1; dFosB act-2: -4
